Article PMC5652008 (EBioMedicine, 2017)

Experiment: Thermodynamic
Assay type: physicochemical
Conditions: phosphate buffer, pH 6.5, Solubility pH 6.5, Table 1, phosphate buffer 0.05 M
Method in brief: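 Equilibrium solubility measured in 0.05 M phosphate buffer, pH 6.5.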

solubility thermodynamic: > 3000 µg/mL
Structure (SMILES): CCCCCCCCCCCCCCCC(=O)NCCCC[C@H](NC(=O)[C@H]1CCCN1C(=O)[C@H](CCC(=O)O)NC(=O)[C@H](C)NC(=O)[C@@H](NC(=O)C[C@H](O)[C@H](CC(C)C)NC(=O)[C@H](CC(N)=O)NC(=O)[C@@H](NC(=O)[C@H](CCC(=O)O)NC(=O)CNC(=O)[C@@H](CCCCN)NC(=O)CNC(=O)[C@@H](CCCCN)NC(=O)[C@@H]1CCCN1C(=O)[C@@H](NC(=O)[C@H](Cc1ccccc1)NC(=O)[C@H](Cc1ccc(O)cc1)NC(=O)[C@@H]1CCCN1C(=O)[C@@H](N)Cc1ccc(O)cc1)[C@@H](C)CC)C(C)C)C(C)C)C(N)=O [Pep#11, Tyr-Pro-Tyr-Phe-Ile-Pro-DLys-Gly-DLys-Gly-Glu-Val-Asn-Sta-Val-Ala-Glu-DPro-Lys(Palmitoyl)-NH2]
